Test results reported in US11702403B2, “EAAT2 activators and methods of using thereof” (OHIO STATE INNOVATION FOUNDATION, priority 2018, dated 2023).

Columns and labels:
human EAAT2 = assay: EAAT2 protein levels in PA-EAAT2 cells by Western blot; format: cell-based; details: 24 hr, EAAT2 protein relative to DMSO
Protocol: Compounds were evaluated in PA-EAAT2 cells, a primary astrocyte stably expressing human EAAT2 mRNAs (Kong et al., J Clin Invest. 2014:1255-67). Cells were treated with compound at 0.0375, 0.075, 0.15, 0.3, 0.6, 1.25, 2.5, 5, 10 μM for 24 hr and then harvested for measuring EAAT2 protein levels by Western blot analysis.

EAAT2 = EAAT2 protein levels in forebrain gliosomes of wild-type FVB/NJ mice by Western blot; format: in vivo; details: 40 mg/kg, normalized to flotilin
Protocol: Mice were treated with compound at 40 mg/kg (or as depicted) and forebrains were harvested for the gliosome preparation 24 hr (or as described) post-treatment. FIG. 2A: Western blots show dose-dependent increase of EAAT2 protein levels. FIG. 2B: Time-dependent fold increase in EAAT2 protein expression in response to compound treatment at 4 hours (1.54±0.13) and 24 hours (1.98±0.19) post-treatment. Quantification of EAAT2 expression time course (normalized to flotilin; n=4/group). Data represented as mean SEM and analyzed using one-way ANOVA with Tukey post-hoc test. *p<0.05, **p<0.01. FIG. 2C: Compound treatment enhances CA3-CA1 LTP in the hippocampus. Mice were treated with vehicle or compound for seven days and acute hippocampal sections were collected for LTP recordings. […] Data represented as mean SEM analyzed using one-way ANOVA with Bonferroni post-hoc tests. Statistical significance denoted as ***p<0.001.
Wild-type FVB/NJ mice (3-4 months old) were treated orally with compound 100 at 1, 2.5, 5, 10, 20, 40 mg/kg. At 24 hours post-treatment, mice were euthanized and forbrains were harvested. Gliosomes (astrocytic processes) were then isolated for measuring EAAT2 protein levels by Western blot analysis. […] This induction could be seen as early as 4 hours post-treatment (FIG. 2B). […] Acute hippocampal slices were then collected and assessed for changes in long-term potentiation (LTP).

CN(C)CCn1nc(-c2ccccn2)ccc1=O [Compound 100, 2-(2-(dimethylamino)ethyl)-6-(pyridin-2-yl)pyridazin-3(2H)-one]
Fold increase for EAAT2 at indicated concentration (maximum activity) (human EAAT2): 2.3 ± 0.3 fold | fold increase in EAAT2 protein expression (EAAT2; 4 hours post-treatment): 1.54±0.13 fold | fold increase in EAAT2 protein expression (EAAT2; 24 hours post-treatment): 1.98±0.19 fold
